The source of these data is patent publication US20250388584A1, “TPK AGONIST AND METHOD FOR TREATING NEURODEGENERATIVE DISEASES USING SAME” (SHANGHAI RAISING PHARMACEUTICAL CO., LTD., priority 2022, published 2025).

Sequences of proteins named here, by UniProt entry; tags and fusion partners are left off. A change or cut given only in a name is not applied to a line headed by its entry.
UniProt Q9H3S4: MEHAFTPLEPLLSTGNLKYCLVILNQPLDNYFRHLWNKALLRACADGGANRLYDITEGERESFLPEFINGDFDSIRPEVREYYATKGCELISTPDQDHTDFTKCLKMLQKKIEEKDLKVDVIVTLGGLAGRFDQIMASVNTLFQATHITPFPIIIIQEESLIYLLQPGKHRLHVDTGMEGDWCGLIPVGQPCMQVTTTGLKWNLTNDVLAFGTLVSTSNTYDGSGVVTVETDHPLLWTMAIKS

In general, EC50 refers to the midpoint of the concentration-response curve. Low readings indicate a more potent agent, high ones a less potent agent. For orientation: Emax means the greatest response seen or fitted, relative to the assay's reference.

This assay concerns the target TPK enzyme (Homo sapiens (Human), UniProt Q9H3S4). The assay is described as follows: TPK enzyme activity test. It counts as biochemical.
[1] abbreviates: calculated with the effect of DMSO on TPK enzyme activity as 100%, read-out: Emax.

Where two headings read alike, the source gives them in different places.

In turn, `O=C(CCn1cnc2c(sc3ccccc32)c1=O)N1CCN(c2cccc(C(F)(F)F)c2)CC1` [Compound 144, 3-(3-oxo-3-(4-(3-(trifluoromethyl)phenyl)piperazin-1-yl)propyl)benzo[4,5]thieno[3,2-d]pyrimidin-4(3H)-one] displayed an EC50 of 1960 nM and an Emax of 161%. As for `Cc1ccc2[nH]c3c(=O)n(CCC(=O)N4CCC(Cc5ccc(F)cc5)CC4)cnc3c2c1` [Compound 164], the Emax under setting [1] is 173%. Still for that read-out and setting: to `Cc1ccc2ncc3c(=O)n(CCCC(=O)N4CCC(Cc5ccc(F)cc5)CC4)cnc3c2c1` [Compound 218, 3-(4-(4-(4-fluorobenzyl)piperidin-1-yl)-4-oxobutyl)-9-methylpyrimido[5,4-c]quinolin-4(3H)-one] belongs 154%; to `Cc1ccc2c(c1)-c1ncn(CCC(=O)N3CCC(Cc4ccc(F)cc4)CC3)c(=O)c1CC2` [Compound 225, 3-(3-(4-(4-fluorobenzyl)piperidin-1-yl)-3-oxopropyl)-9-methyl-5,6-dihydrobenzo[h]quinazolin-4(3H)-one], 173%.
